Data as given in patent US6818647B2, “Method and composition for restoring diuretic and renal function” (CV Therapeutics, Inc, priority 1998, dated 2004).

Test system: patients with NYHA Class II or III CHF
Experiment: Renal function in CHF patients after single intravenous dose (Example 1)
Settings: 0-2 hours, mean, single i.v. dose

With CCCn1c(=O)c2nc(C3CC4CC3C3OC43)[nH]c2n(CCC)c1=O [BG9719, 1,3-dipropyl-8-[5,6-exo-epoxy)-2(S) norbornyl] xanthine] the RPF was 334 mL/min/1.73 m^2.
